Values quoted from earlier work, collected in US20210379021A1 (Race Oncology Ltd., priority 2018, published 2021).
Where a name gives a salt, the structure may show the parent alone.

Details: human, in vivo; cited from earlier work

## C(=N\NC1=NCCN1)/c1c2ccccc2c(/C=N/NC2=NCCN2)c2ccccc12 [bisantrene, 9,10-anthracenedicarboxaldehyde-bis [(4,5-dihydro-1H-imidazole-2-yl) hydrazine] dihydrochloride]
  vesicant action if extravasated: potent vesicant
